Measured values reported in patent publication US9575038B2, “Universal detector calibrant” (dated 2017).
Marks after values point to notes of the source that are not given here.

Assays:
detection canines [1] = assay: Odor Recognition Test After Training
detection canines [2] = assay: Odor Recognition Test Before Training (canines untrained on 1-BO, controlled odor permeation system)
detection canines [3] = assay: Field Testing with PFTBA Training (double-blind presentation of PFTBA sample and blank)

| Structure (SMILES) | training of detection canines to alert to the compound (detection canines [1]) | Successfully Imprinted (detection canines [1]; Drug detection canines (n = 3)) [%] | Successfully Imprinted (detection canines [1]; Explosives detection canines (n = 5)) [%] | No Alert (%) (detection canines [2]; Accelerant detection canines (n = 2)) | No Alert (%) (detection canines [2]; Drug detection canines (n = 13)) | No Alert (%) (detection canines [2]; Explosives detection canines (n = 22)) | Interest (%) (detection canines [2]; Explosives detection canines (n = 22), canine is not odor discriminating) | alert of untrained canines to the compound (detection canines [2]; all tested canines) | % Alert (detection canines [3]; two canines (nos. 136 and 143) after three days of imprint, gauze in LDPE bag) [%] | canine identification of the sample (detection canines [3]; two canines, versus blank sample) |
| --- | --- | --- | --- | --- | --- | --- | --- | --- | --- | --- |
| CCCCCCCCBr | successfully trained to alert | 100 | 100 | 100 | 100 | 86 | 9* % | did not alert |  |  |
| FC(F)(F)C(F)(F)C(F)(F)C(F)(F)N(C(F)(F)C(F)(F)C(F)(F)C(F)(F)F)C(F)(F)C(F)(F)C(F)(F)C(F)(F)F |  |  |  |  |  |  |  |  | 100 | correctly identified and altered to the PFTBA sample |
